Laboratory results: patent US20130310310A1

Biological target: GLP-1 receptor

## [Cys^37(mPEG5000-MAL)] Exendin-4 (peptide)
  EC50 (nM), GLP-1 receptor agonistic activity (CRE-luciferase reporter in HEK293 cells): 1.76 nM
